Test [1] has as its target T1, P2X7 (Homo sapiens (Human), UniProt Q99572). In words: Radioligand binding, human P2X7-1321N1 cell membranes, tritiated A-804598 tracer. Particulars: 1 hour at 4° C. How it is done: (B) Radioligand binding: human or rat P2X7-1321N1 cells were collected and frozen @ −80° C. On the day of the experiment, cell membrane preparations were made according to standard published methods. […] The compound can be prepared as described in the literature. […] The assay was terminated by filtration (GF/B filters pre-soaked with 0.3% PEI) and washed with washing buffer (Tris-HCl 50 mM). The IC50 generated in the binding assay was corrected for tracer concentration and affinity of the tracer to derive at the affinity (Ki) of the test compounds.

Sequences of proteins named here, by UniProt entry; tags and fusion partners are left off. A change or cut given only in a name is not applied to a line headed by its entry.
UniProt Q99572: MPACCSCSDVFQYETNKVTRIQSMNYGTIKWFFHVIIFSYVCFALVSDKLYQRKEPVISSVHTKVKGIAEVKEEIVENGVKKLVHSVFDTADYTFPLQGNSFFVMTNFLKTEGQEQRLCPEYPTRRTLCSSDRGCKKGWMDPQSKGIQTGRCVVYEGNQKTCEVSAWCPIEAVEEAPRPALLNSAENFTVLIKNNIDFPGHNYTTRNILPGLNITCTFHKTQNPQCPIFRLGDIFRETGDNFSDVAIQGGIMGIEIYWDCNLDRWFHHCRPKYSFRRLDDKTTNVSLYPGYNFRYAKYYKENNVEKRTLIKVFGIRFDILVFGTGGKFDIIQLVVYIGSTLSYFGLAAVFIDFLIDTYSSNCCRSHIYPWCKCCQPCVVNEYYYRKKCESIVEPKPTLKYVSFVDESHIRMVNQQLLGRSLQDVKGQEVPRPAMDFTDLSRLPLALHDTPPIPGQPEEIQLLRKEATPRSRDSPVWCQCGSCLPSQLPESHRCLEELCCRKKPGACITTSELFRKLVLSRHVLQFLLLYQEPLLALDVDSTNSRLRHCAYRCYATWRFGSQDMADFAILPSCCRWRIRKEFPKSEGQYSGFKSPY
UniProt Q64663: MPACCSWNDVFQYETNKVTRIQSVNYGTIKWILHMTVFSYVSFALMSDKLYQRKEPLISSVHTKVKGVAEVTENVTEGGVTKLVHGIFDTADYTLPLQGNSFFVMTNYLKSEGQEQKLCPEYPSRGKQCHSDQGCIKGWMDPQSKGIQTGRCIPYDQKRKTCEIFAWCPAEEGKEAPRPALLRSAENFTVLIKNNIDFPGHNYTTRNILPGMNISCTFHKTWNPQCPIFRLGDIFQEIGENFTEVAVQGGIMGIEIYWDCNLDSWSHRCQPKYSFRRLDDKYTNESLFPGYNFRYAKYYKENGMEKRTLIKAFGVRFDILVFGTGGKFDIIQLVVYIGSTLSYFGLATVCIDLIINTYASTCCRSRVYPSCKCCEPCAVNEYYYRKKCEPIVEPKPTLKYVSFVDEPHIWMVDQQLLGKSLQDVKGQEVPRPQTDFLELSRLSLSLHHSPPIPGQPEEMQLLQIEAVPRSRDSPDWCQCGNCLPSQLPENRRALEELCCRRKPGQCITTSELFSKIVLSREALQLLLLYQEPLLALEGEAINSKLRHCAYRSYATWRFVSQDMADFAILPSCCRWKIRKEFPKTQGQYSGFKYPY

Test [2] concerns the target T1, P2X7. As to the kind of experiment: Ca2+ flux (FLIPR) in 1321N1 cells expressing recombinant human P2X7 channel. The test is classed as cell-based. Particulars: 250 μM BzATP. How it is done:
(§1) (A) Ca^2+ Flux: 1321N1 cells expressing the recombinant human, rat or mouse P2X7 channel was cultured in HyQ DME/(HyClone/Dulbecco's Modified Eagle Medium) high glucose supplemented with 10% Fetal Bovine Serum (FBS) and appropriate selection marker. Cells were seeded at a density of 25000 cells/well (96-well clear bottom black walled plates) in 100 μl volume/well. On the day of the experiment, cell plates were washed with assay buffer, containing (in mM): 130 NaCl, 2 KCl, 1 CaCl2, 1 MgCl2, 10 HEPES, 5 glucose; pH 7.40 and 300 mOs. After the wash, cells were loaded with the Calcium-4 dye (Molecular Device) and incubated in the dark for 60 minutes. Test compounds were prepared at 250× the test concentration in neat DMSO. Intermediate 96-well compound plates were prepared by transferring 1.2 μL of the compound into 300 μL of assay buffer. A further 3× dilution occurred when transferring 50 μL/well of the compound plate to 100 μL/well in the cell plate. Cells were incubated with test compounds and dye for 30 minutes. […] The fluorescence change was measured 180 seconds after adding the agonist.
On the technique in general: A change in cytosolic calcium serves as a functional read-out for many receptors and channels.

The target of another test is rat P2X7 (Rattus norvegicus (Rat), UniProt Q64663). In words: Ca2+ flux (FLIPR) in 1321N1 cells expressing recombinant rat P2X7 channel. The test is classed as cell-based. Particulars: 250 μM BzATP. The method, then: as §1

Results on 26 compounds are retold here after US9040534B2 (Janssen Pharmaceutica NV, priority 2013, dated 2015).

Usually Ki stands for a dissociation constant, usually derived from enzyme kinetics or from competition with a known ligand. A high value points to a looser hold on the target. Usually IC50 stands for the midpoint of a concentration-inhibition curve.

In the case of `C[C@H]1Cn2c(nnc2-c2cncs2)C(=O)N1Cc1cccc(C(F)(F)F)c1Cl` [Example 37, (6S)-7-[2-Chloro-3-(trifluoromethyl)benzyl]-6-methyl-3-(1,3-thiazol-5-yl)-6,7-dihydro[1,2,4]triazolo[4,3-a]pyrazin-8(5H)-one], at P2X7 [1], the Ki turned out to be 2 nM. On P2X7 [2], the IC50 worked out at 6.9 nM.
For the compound `CC[C@H]1Cn2c(nnc2-c2cccnc2)C(=O)N1Cc1cccc(C(F)(F)F)c1Cl` [Example 73, (6S)-7-[2-Chloro-3-(trifluoromethyl)benzyl]-6-ethyl-3-pyridin-3-yl-6,7-dihydro[1,2,4]triazolo[4,3-a]pyrazin-8(5H)-one], on P2X7 [1], the affinity corresponds to a Ki of 12.6 nM. Besides, the IC50 at rat P2X7 came out at 133 nM.
On P2X7 [1], `C[C@H]1Cn2c(nnc2-c2cc[nH]n2)C(=O)N1Cc1cccc(C(F)(F)F)c1Cl` [Example 28, (6S)-7-[2-Chloro-3-(trifluoromethyl)benzyl]-6-methyl-3-(1H-pyrazol-3-yl)-6,7-dihydro[1,2,4]triazolo[4,3-a]pyrazin-8(5H)-one] registered a Ki of 3.2 nM.
`O=C1c2nnc(-c3ncccn3)n2C[C@H](C2CC2)N1Cc1cccc(C(F)(F)F)c1Cl` (single isomer, unassigned) [Example 66, (6S*)-7-[2-Chloro-3-(trifluoromethyl)benzyl]-6-cyclopropyl-3-pyrimidin-2-yl-6,7-dihydro[1,2,4]triazolo[4,3-a]pyrazin-8(5H)-one]: the IC50 at rat P2X7 was determined as 8.2 nM.
As to `C[C@H]1Cn2c(nnc2-c2cnccn2)C(=O)N1Cc1ccccc1` [Example 79, (6S)-7-Benzyl-6-methyl-3-pyrazin-2-yl-6,7-dihydro[1,2,4]triazolo[4,3-a]pyrazin-8(5H)-one], at P2X7 [2], the IC50 amounted to 9620 nM.
Turning to `O=C1c2nnc(-c3ncccn3)n2C[C@@H](C2CC2)N1Cc1cccc(C(F)(F)F)c1Cl` (single isomer, unassigned) [Example 65, (6R*)-7-[2-Chloro-3-(trifluoromethyl)benzyl]-6-cyclopropyl-3-pyrimidin-2-yl-6,7-dihydro[1,2,4]triazolo[4,3-a]pyrazin-8(5H)-one], on P2X7 [1], the Ki worked out at 100 nM. Moreover, the IC50 at rat P2X7 amounted to 396 nM.
With `C[C@H]1Cn2c(nnc2-c2cnccn2)C(=O)N1Cc1c(Cl)cccc1Cl` [Example 86, (6S)-7-(2,6-Dichlorobenzyl)-6-methyl-3-pyrazin-2-yl-6,7-dihydro[1,2,4]triazolo[4,3-a]pyrazin-8(5H)-one], the IC50 at P2X7 [2] is 97.1 nM.
Turning to `Cc1ncsc1-c1nnc2n1C[C@H](C)N(Cc1cccc(C(F)(F)F)c1Cl)C2=O` [Example 40, (6S)-7-[2-Chloro-3-(trifluoromethyl)benzyl]-6-methyl-3-(4-methyl-1,3-thiazol-5-yl)-6,7-dihydro[1,2,4]triazolo[4,3-a]pyrazin-8(5H)-one], at P2X7 [1], the affinity corresponds to a Ki of 20 nM. On rat P2X7, the concentration for half-maximal inhibition (IC50) stood at 1300 nM.
At P2X7 [1], `C[C@H]1Cn2c(nnc2-c2ccon2)C(=O)N1Cc1cccc(C(F)(F)F)c1Cl` [Example 41, (6S)-7-[2-Chloro-3-(trifluoromethyl)benzyl]-3-isoxazol-3-yl-6-methyl-6,7-dihydro[1,2,4]triazolo[4,3-a]pyrazin-8(5H)-one] gave an inhibition constant Ki of 12.6 nM. That is a double-digit nanomolar value.
As to `Cc1cncc(-c2nnc3n2C[C@H](C)N(Cc2cccc(C(F)(F)F)c2Cl)C3=O)c1` [Example 57, (6S)-7-[2-Chloro-3-(trifluoromethyl)benzyl]-6-methyl-3-(5-methylpyridin-3-yl)-6,7-dihydro[1,2,4]triazolo[4,3-a]pyrazin-8(5H)-one], at P2X7 [1], the Ki was 50.1 nM. The IC50 on P2X7 [2] was 219 nM.
In the case of `O=C1c2nnc(-c3cccnc3)n2CC(C2CC2)N1Cc1cccc(C(F)(F)F)c1Cl` (racemic) [Example 67, (±)-7-[2-Chloro-3-(trifluoromethyl)benzyl]-6-cyclopropyl-3-pyridin-3-yl-6,7-dihydro[1,2,4]triazolo[4,3-a]pyrazin-8(5H)-one], at P2X7 [1], the Ki turned out to be 7.9 nM. Besides, the IC50 at rat P2X7 worked out at 283 nM.
`Cc1c(CN2C(=O)c3nnc(-c4cnccn4)n3C[C@@H]2C)cccc1C(F)(F)F` [Example 85, (6S)-6-Methyl-7-[2-methyl-3-(trifluoromethyl)benzyl]-3-pyrazin-2-yl-6,7-dihydro[1,2,4]triazolo[4,3-a]pyrazin-8(5H)-one] gave a Ki on P2X7 [1] of 5 nM.
On P2X7 [1], `C[C@H]1Cn2c(nnc2-c2cnn(C)c2)C(=O)N1Cc1cccc(C(F)(F)F)c1Cl` [Example 24, (6S)-7-[2-Chloro-3-(trifluoromethyl)benzyl]-6-methyl-3-(1-methyl-1H-pyrazol-4-yl)-6,7-dihydro[1,2,4]triazolo[4,3-a]pyrazin-8(5H)-one] came in with a Ki of 25.1 nM.
As to `C[C@H]1Cn2c(nnc2-c2cnccn2)C(=O)N1Cc1ccc(Cl)cc1S(C)(=O)=O` [Example 82, (6S)-7-[4-Chloro-2-(methylsulfonyl)benzyl]-6-methyl-3-pyrazin-2-yl-6,7-dihydro[1,2,4]triazolo[4,3-a]pyrazin-8(5H)-one], the affinity on P2X7 [1] corresponds to a Ki of 63.1 nM.
As for `C[C@H]1Cn2c(nnc2-c2cnccn2)C(=O)N1Cc1ccccc1Cl` [Example 80, (6S)-7-(2-Chlorobenzyl)-6-methyl-3-pyrazin-2-yl-6,7-dihydro[1,2,4]triazolo[4,3-a]pyrazin-8(5H)-one], on P2X7 [2], the concentration for half-maximal inhibition (IC50) is 248 nM.
As for `O=C1c2nnc(-c3cnccn3)n2CCN1Cc1cccc(F)c1F` [Example 6, 7-(2,3-Difluorobenzyl)-3-pyrazin-2-yl-6,7-dihydro[1,2,4]triazolo[4,3-a]pyrazin-8(5H)-one], on P2X7 [2], the IC50 was determined as 3450 nM.
The same measure, in the same setting: the same measure for `C[C@H]1Cn2c(nnc2C2CCOCC2)C(=O)N1Cc1cccc(C(F)(F)F)c1Cl` [Example 53, (6S)-7-[2-Chloro-3-(trifluoromethyl)benzyl]-6-methyl-3-(tetrahydro-2H-pyran-4-yl)-6,7-dihydro[1,2,4]triazolo[4,3-a]pyrazin-8(5H)-one]: 3870 nM.
In the case of `C[C@H]1Cn2c(nnc2-c2cccc(C(F)(F)F)n2)C(=O)N1Cc1cccc(C(F)(F)F)c1Cl` [Example 55, (6S)-7-[2-Chloro-3-(trifluoromethyl)benzyl]-6-methyl-3-[6-(trifluoromethyl)pyridin-2-yl]-6,7-dihydro[1,2,4]triazolo[4,3-a]pyrazin-8(5H)-one], the inhibition constant (Ki) at P2X7 [1] worked out at 501 nM.
As for `C[C@H]1Cn2c(nnc2C2CCCN(C(=O)OC(C)(C)C)C2)C(=O)N1Cc1cccc(C(F)(F)F)c1Cl` (stereo partly drawn) [Example 59, (6S)-tert-Butyl3-{7-[2-chloro-3-(trifluoromethyl)benzyl]-6-methyl-8-oxo-5,6,7,8-tetrahydro[1,2,4]triazolo[4,3-a]pyrazin-3-yl}piperidine-1-carboxylate], at P2X7 [2], the concentration for half-maximal inhibition (IC50) was 1790 nM.
`C[C@H]1Cn2c(nnc2-c2cnccn2)C(=O)N1Cc1ccc(F)cc1Cl` [Example 78, (6S)-7-(2-Chloro-4-fluorobenzyl)-6-methyl-3-pyrazin-2-yl-6,7-dihydro[1,2,4]triazolo[4,3-a]pyrazin-8(5H)-one] came in with a Ki at P2X7 [1] of 15.8 nM.
`O=C1c2nnc(-c3cnccn3)n2CCN1Cc1cccc(Cl)c1Cl` [Example 2, 7-(2,3-Dichlorobenzyl)-3-pyrazin-2-yl-6,7-dihydro[1,2,4]triazolo[4,3-a]pyrazin-8(5H)-one] registered a Ki on P2X7 [1] of 28.8 nM.
In turn, `Cc1nc(-c2nnc3n2C[C@H](C)N(Cc2cccc(C(F)(F)F)c2Cl)C3=O)cs1` [Example 36, (6S)-7-[2-Chloro-3-(trifluoromethyl)benzyl]-6-methyl-3-(2-methyl-1,3-thiazol-4-yl)-6,7-dihydro[1,2,4]triazolo[4,3-a]pyrazin-8(5H)-one] returned a Ki at P2X7 [1] of 25.1 nM. The IC50 at P2X7 [2] was determined as 8.2 nM.
For the compound `C[C@H]1Cn2c(nnc2-c2ccncn2)C(=O)N1Cc1cccc(C(F)(F)F)c1Cl` [Example 33, (6S)-7-[2-Chloro-3-(trifluoromethyl)benzyl]-6-methyl-3-pyrimidin-4-yl-6,7-dihydro[1,2,4]triazolo[4,3-a]pyrazin-8(5H)-one], at P2X7 [1], the affinity corresponds to a Ki of 5 nM.
On P2X7 [1], `O=C1c2nnc(-c3cnccn3)n2CC(C2CC2)N1Cc1cccc(C(F)(F)F)c1Cl` (racemic) [Example 61, (±)-7-[2-Chloro-3-(trifluoromethyl)benzyl]-6-cyclopropyl-3-pyrazin-2-yl-6,7-dihydro[1,2,4]triazolo[4,3-a]pyrazin-8(5H)-one] showed a Ki of 7.9 nM.
With `C[C@H]1Cn2c(nnc2-c2ccncc2)C(=O)N1Cc1cccc(C(F)(F)F)c1Cl` [Example 47, (6S)-7-[2-Chloro-3-(trifluoromethyl)benzyl]-6-methyl-3-pyridin-4-yl-6,7-dihydro[1,2,4]triazolo[4,3-a]pyrazin-8(5H)-one], affinity on P2X7 [1] was put at a Ki of 15.8 nM. At P2X7 [2], the IC50 amounted to 9.3 nM.
On P2X7 [1], `C[C@H]1Cn2c(nnc2-c2ccc(Cl)cn2)C(=O)N1Cc1cccc(C(F)(F)F)c1Cl` [Example 56, (6S)-3-(5-Chloropyridin-2-yl)-7-[2-chloro-3-(trifluoromethyl)benzyl]-6-methyl-6,7-dihydro[1,2,4]triazolo[4,3-a]pyrazin-8(5H)-one] showed a Ki of 6.3 nM. In other words, the single-digit nanomolar range.
